Results as given in patent US7964647B2 (Mutual Pharmaceutical Company, Inc., priority 2007, dated 2011).

COc1cc2c(c(OC)c1OC)-c1ccc(OC)c(=O)cc1[C@@H](NC(C)=O)CC2 [Colchicine, (−)-N-[(7S,12aS)-1,2,3,10-tetramethoxy-9-oxo-5,6,7,9-tetrahydrobenzo[a]heptalen-7-yl]-acetamide]
Mean Cmin concentration on Day 25 (0.6 mg b.i.d. steady state): 0.907 ng/mL
Cmin, MEAN (0.6 mg b.i.d. x 10 days, after last dose (Day 25), healthy adults, N = 13): 0.90651 ng/mL
